Earlier results as cited in patent publication US20110195912A1, “Oligomer-Protease Inhibitor Conjugates” (Nektar Therapeutics, priority 2008, published 2011).

Test system: HCV genotype 1
Conditions: in combination with ribavirin; patients with HCV genotype 1 infection

Substance: pegIFN: PEGylated interferon-α2, current standard of treatment alone or in combination with ribavirin
- patients in whom combination treatment is effective: 50%
